One block for each binder: values may come before it.
Legend:
Human β-actin [1] = target: T1, Human β-actin (human, UniProt P60709 2-375); assay: F-actin binding spin-down assay, 10 µM peptide, 23 µM F-actin, SDS-PAGE, Coomassie Blue
Human β-actin [2] = target: T1, Human β-actin; assay: purified G-actin and purified recombinant eNOS, immunoprecipitation with eNOS monoclonal antibody on protein G-agarose, Western blot
Human β-actin [3] = target: T1, Human β-actin; assay: F-actin binding spin-down assay, SDS-PAGE, Coomassie Blue

Binder: LGLRWYAL (also called P326) [ABS peptide 326]
- binding result (Human β-actin [1]): binds

Binder: RKKTFKEVANA (also called P492) [ABS peptide 492]
- binding result (Human β-actin [3]): no binding (tested: 10 µM peptide, 23 µM F-actin)

The remaining lines, values ahead:

- binding result (Human β-actin [2]): binds
B1: purified recombinant eNOS protein (human eNOSpCW) (enzyme)
chain: GNLKSVAQEPGPPCGLGLGLGLGLCGKQGPATPAPEPSRAPASLLPPAPEHSPPSSPLTQPPEGPKFPRVKNWEVGSITYDTLSAQAQQDGPCTPRRCLGSLVFPRKLQGRPSPGPPAPEQLLSQARDFINQYYSSIKRSGSQAHEQRLQEVEAEVAATGTYQLRESELVFGAKQAWRNAPRCVGRIQWGKLQVFDARDCRSAQEMFTYICNHIKYATNRGNLRSAITVFPQRCPGRGDFRIWNSQLVRYAGYRQQDGSVRGDPANVEITELCIQHGWTPGNGRFDVLPLLLQAPDDPPELFLLPPELVLEVPLEHPTLEWFAALGLRWYALPAVSNMLLEIGGLEFPAAPFSGWYMSTEIGTRNLCDPHRYNILEDVAVCMDLDTRTTSSLWKDKAAVEINVAVLHSYQLAKVTIVDHHAATASFMKHLENEQKARGGCPADWAWIVPPISGSLTPVFHQEMVNYFLSPAFRYQPDPWKGSAAKGTGITRKKTFKEVANAVKISASLMGTVMAKRVKATILYGSETGRAQSYAQQLGRLFRKAFDPRVLCMDEYDVVSLEHETLVLVVTSTFGNGDPPENGESFAAALMEMSGPYNSSPRPEQHKSYKIRFNSISCSDPLVSSWRRKRKESSNTDSAGALGTLRFCVFGLGSRAYPHFCAFARAVDTRLEELGGERLLQLGQGDELCGQEEAFRGWAQAAFQAACETFCVGEDAKAAARDIFSPKRSWKRQRYRLSAQAEGLQLLPGLIHVHRRKMFQATIRSVENLQSSKSTRATILVRLDTGGQEGLQYQPGDHIGVCPPNRPGLVEALLSRVEDPPAPTEPVAVEQLEKGSPGGPPPGWVRDPRLPPCTLRQALTFFLDITSPPSPQLLRLLSTLAEEPREQQELEALSQDPRRYEEWKWFRCPTLLEVLEQFPSVALPAPLLLTQLPLLQPRYYSVSSAPSTHPGEIHLTVAVLAYRTQDGLGPLHYGVCSTWLSQLKPGDPVPCFIRGAPSFRLPPDPSLPCILVGPGTGIAPFRGFWQERLHDIESKGLQPTPMTLVFGCRCSQLDHLYRDEVQNAQQRGVFGRVLTAFSREPDNPKTYVQDILRTELAAEVHRVLCLERGHMFVCGDVTMATNVLQTVQRILATEGDMELDEAGDVIGVLRDQQRYHEDIFGLTLRTQEVTSRIRTQSFSLQERQLRGAVPWAFDPPGSDTNSP
notes: also called purified eNOS

- binding result (Human β-actin [1]): binds
Binder: AGARAYAA [control peptide for ABS peptide 326]
